“And” between values parts separate entries of the source, which are not always exact repeats. Equal values may be shown once. Where only a bound is given, the exact number is not on record here.

Sequences of proteins named here, by UniProt entry; tags and fusion partners are left off. A change or cut given only in a name is not applied to a line headed by its entry.
UniProt Q9H999: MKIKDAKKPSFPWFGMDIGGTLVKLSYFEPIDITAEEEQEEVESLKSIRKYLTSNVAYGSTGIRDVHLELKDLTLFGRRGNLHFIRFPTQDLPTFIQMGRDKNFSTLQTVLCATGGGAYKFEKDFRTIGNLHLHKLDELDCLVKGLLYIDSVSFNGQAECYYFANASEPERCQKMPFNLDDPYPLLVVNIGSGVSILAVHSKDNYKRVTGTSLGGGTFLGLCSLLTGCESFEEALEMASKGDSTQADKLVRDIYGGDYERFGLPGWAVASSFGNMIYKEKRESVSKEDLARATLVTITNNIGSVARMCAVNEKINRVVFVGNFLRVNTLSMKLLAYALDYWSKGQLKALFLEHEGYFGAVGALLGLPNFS

LipE data for 25 compounds are collected here from article PMC8693618 (Bioorganic & medicinal chemistry, 2021).

The assay deals with human PANK3 (Homo sapiens, UniProt Q9H999).
`CC(C)c1ccc(NC(=O)N2CCN(c3cnc(C#N)nc3)CC2)cc1` [Compound 52, 4-(2-cyanopyrimidin-5-yl)-N-(4-isopropylphenyl) piperazine-1-carboxamide] returned a LipE of 4.54. `CC(C)(C)c1ccc(NC(=O)N2CCN(c3ccc(C#N)cn3)CC2)cc1` [Compound 1, N-(4-(tert-butyl)phenyl)-4-(5-cyanopyridin-2-yl) piperazine-1-carboxamide] had a LipE of 2.8. `CC(C)c1ccc(NC(=O)N2CCN(c3ncc(Br)cn3)CC2)cc1` [Compound 50, 4-(5-bromopyrimidin-2-yl)-N-(4-isopropylphenyl) piperazine-1-carboxamide] registered a LipE of 3.42. `CC(C)c1ccc(NC(=O)N2CCN(c3ccc(C#N)nn3)CC2)cc1` [Compound 56, 4-(6-cyanopyridazin-3-yl)-N-(4-isopropylphenyl) piperazine-1-carboxamide]: the LipE was > 6 and 6.48. Compound `CC(C)Cc1ccc(NC(=O)N2CCN(c3ccc(C#N)cn3)CC2)cc1` [Compound 7, N-(4-(sec-butyl)phenyl)-4-(5-cyanopyridin-2-yl) piperazine-1-carboxamide] showed a LipE of 2.80. `CC(C)c1ccc(NC(=O)N2CCN(c3ccc([N+](=O)[O-])cn3)CC2)cc1` [Compound 40, N-(4-isopropylphenyl)-4-(5-nitropyridin-2-yl)piperazine-1-carboxamide] yielded a LipE of 4.49. Compound `CC(C)c1ccc(NC(=O)N2CCN(c3ccc(C#N)cn3)CC2)cc1` [Compound 5, 4-(5-cyanopyridin-2-yl)-N-(4-isopropylphenyl)piperazine-1-carboxamide] showed a LipE of 3.37. The compound `CC(C)c1ccc(NC(=O)N2CCN(c3ccccn3)CC2)cc1` [Compound 35, N-(4-isopropylphenyl)-4-(pyridin-2-yl)piperazine-1-carboxamide] had a LipE of 2.18. Turning to `CC(C)c1ccc(CC(=O)N2CCN(c3nccc(Cl)n3)CC2)cc1` [Compound 51, 1-(4-(4-chloropyrimidin-2-yl)piperazin-1-yl)-2-(4-isopropylphenyl)ethan-1-one], the LipE is listed as 3.07.

Consider `CC(C)c1ccc(NC(=O)N2CCN(c3cccc(Cl)c3)CC2)cc1` [Compound 46, 4-(3-chlorophenyl)-N-(4-isopropylphenyl)piperazine-1-carboxamide], for which the LipE was found to be 0.65. For the compound `CC(=O)c1ccc(N2CCN(C(=O)Nc3ccc(C(C)C)cc3)CC2)cc1` [Compound 44, 4-(4-acetylphenyl)-N-(4-isopropylphenyl)piperazine-1-carboxamide], the LipE was 1.46. For `CC(C)c1ccc(NC(=O)N2CCN(c3ncccc3C#N)CC2)cc1` [Compound 38, 4-(3-cyanopyridin-2-yl)-N-(4-isopropylphenyl) piperazine-1-carboxamide] the value was 3.17; for `CC(C)c1ccc(CC(=O)N2CCN(c3cnc(C#N)nc3)CC2)cc1` [Compound 53, 5-(4-(2-(4-isopropylphenyl)acetyl)piperazin-1-yl) pyrimidine-2-carbonitrile], 5.34; for `CC(C)c1ccc(OC(=O)N2CCN(c3ccc(C#N)nn3)CC2)cc1` [Compound 61, 4-isopropylphenyl 4-(6-cyanopyridazin-3-yl)piperazine-1-carboxylate], 5.55. To `CC(C)c1ccc(NC(=O)N2CCN(c3cc(C#N)ccn3)CC2)cc1` [Compound 39, 4-(4-cyanopyridin-2-yl)-N-(4-isopropylphenyl) piperazine-1-carboxamide] belongs 3.46; to `CC(C)c1ccc(NC(=O)N2CCN(c3ccc(Br)cn3)CC2)cc1` [Compound 42, 4-(5-bromopyridin-2-yl)-N-(4-isopropylphenyl) piperazine-1-carboxamide], 2.44. In turn, `CC(C)c1ccc(NC(=O)N2CCN(c3ccc(C(F)(F)F)cn3)CC2)cc1` [Compound 41, N-(4-isopropylphenyl)-4-(5-(trifluoromethyl)pyridin-2-yl)piperazine-1-carboxamide] had a LipE of 1.88. For the compound `CC(C)c1ccc(CC(=O)N2CCN(c3cnc(Cl)cn3)CC2)cc1` [Compound 55, 1-(4-(5-chloropyrazin-2-yl)piperazin-1-yl)-2-(4-isopropylphenyl)ethan-1-one], the LipE is listed as 5.05.

For `CC(C)c1ccc(NC(=O)N2CCN(c3ccc(Cl)nn3)CC2)cc1` [Compound 58, 4-(6-chloropyridazin-3-yl)-N-(4-isopropylphenyl) piperazine-1-carboxamide], the LipE amounted to 6.05. On to `CC(C)c1ccc(NC(=O)N2CCN(c3nccc(C#N)n3)CC2)cc1` [Compound 49, 4-(4-cyanopyrimidin-2-yl)-N-(4-isopropylphenyl) piperazine-1-carboxamide], for which the LipE was found to be 4.66. In turn, `CC(C)c1ccc(NC(=O)N2CCN(c3ccc(Cl)cn3)CC2)cc1` [Compound 43, 4-(5-chloropyridin-2-yl)-N-(4-isopropylphenyl) piperazine-1-carboxamide] came in with a LipE of 2.60. For `CC(C)c1ccc(NC(=O)N2CCN(c3ccc(C#N)cc3)CC2)cc1` [Compound 48, 4-(4-cyanophenyl)-N-(4-isopropylphenyl)piperazine-1-carboxamide] the value was 2.25; for `CC(C)c1ccc(NC(=O)N2CCN(c3cnc(C#N)cn3)CC2)cc1` [Compound 54, 4-(5-cyanopyrazin-2-yl)-N-(4-isopropylphenyl) piperazine-1-carboxamide], 5.33.

Compound `CC(C)c1ccc(NC(=O)N2CCN(c3ccc(F)cc3)CC2)cc1` [Compound 45, 4-(4-fluorophenyl)-N-(4-isopropylphenyl)piperazine-1-carboxamide] returned a LipE of 1.39. Take `Cc1ccc(N2CCN(C(=O)Nc3ccc(C(C)C)cc3)CC2)nc1` [Compound 36, N-(4-isopropylphenyl)-4-(5-methylpyridin-2-yl) piperazine-1-carboxamide]: the LipE was 2.04.
